Target: Metabotropic glutamate receptor 4 (Homo sapiens) (UniProt Q14833)
Assay: PubChem AID 2197
Conditions: CHO hmGluR4/Gqi5 calcium mobilization, PAM potency

Chains of the proteins cited; added tags and fusions are not shown. Lines headed by an entry give the natural chain unless they say otherwise; changes in a name come on top.
UniProt Q14833: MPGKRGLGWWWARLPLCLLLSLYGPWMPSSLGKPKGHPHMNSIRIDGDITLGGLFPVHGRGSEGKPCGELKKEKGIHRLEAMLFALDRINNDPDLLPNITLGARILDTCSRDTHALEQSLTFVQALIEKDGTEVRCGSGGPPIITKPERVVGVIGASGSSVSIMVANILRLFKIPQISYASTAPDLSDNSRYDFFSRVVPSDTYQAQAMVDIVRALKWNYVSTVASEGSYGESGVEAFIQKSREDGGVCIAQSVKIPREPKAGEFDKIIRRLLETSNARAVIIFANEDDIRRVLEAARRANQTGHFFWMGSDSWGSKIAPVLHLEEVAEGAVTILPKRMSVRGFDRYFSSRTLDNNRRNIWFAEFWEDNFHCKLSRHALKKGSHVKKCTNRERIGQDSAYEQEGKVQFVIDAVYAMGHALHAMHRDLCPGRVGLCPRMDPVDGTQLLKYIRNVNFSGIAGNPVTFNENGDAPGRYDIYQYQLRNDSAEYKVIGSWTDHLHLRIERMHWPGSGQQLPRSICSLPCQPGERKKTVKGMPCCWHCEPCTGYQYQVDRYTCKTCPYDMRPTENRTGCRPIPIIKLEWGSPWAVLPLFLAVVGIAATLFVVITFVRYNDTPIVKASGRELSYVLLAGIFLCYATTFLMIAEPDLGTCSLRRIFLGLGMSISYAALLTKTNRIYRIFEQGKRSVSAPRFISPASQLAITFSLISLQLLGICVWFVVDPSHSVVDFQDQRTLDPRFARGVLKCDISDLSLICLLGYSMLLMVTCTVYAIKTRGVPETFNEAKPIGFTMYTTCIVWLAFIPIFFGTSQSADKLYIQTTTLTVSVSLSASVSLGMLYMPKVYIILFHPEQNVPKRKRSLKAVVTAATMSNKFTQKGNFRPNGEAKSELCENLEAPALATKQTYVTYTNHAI

SMILES	EC50
O=C(Nc1ccc(N2C(=O)C3[C@@H]4C=C[C@@H](CC4)[C@H]3C2=O)c(Cl)c1)c1ccccn1 (stereo not given in full)	318 nM
CC1(C)[C@@H]2C(=O)N(c3ccc(NC(=O)c4ccccn4)cc3Cl)C(=O)[C@@H]21	473 nM
O=C(Nc1ccc(N2C(=O)CC(c3ccccc3)C2=O)c(Cl)c1)c1ccccn1 (stereo not given)	823 nM
CC1(c2ccccc2)CC(=O)N(c2ccc(NC(=O)c3ccccn3)cc2Cl)C1=O (stereo not given)	837 nM
O=C(Nc1ccc(N2C(=O)C3CCCC[C@@H]3C2=O)c(Cl)c1)c1ccccn1 (stereo not given in full)	265 nM
O=C(Nc1ccc(NC(=O)c2ccccc2Cl)c(F)c1)c1ccccn1	480 nM

Molecules with a lower EC50, results first:

EC50	SMILES
47.1 nM	O=C(Nc1ccc(N2C(=O)c3cccc(Cl)c3C2=O)c(Cl)c1)c1ccccn1
60.3 nM	O=C(Nc1ccc(N2C(=O)c3ccccc3C2=O)c(Cl)c1)c1ccccn1
95.3 nM	COc1cc(NC(=O)c2ccccn2)ccc1NC(=O)c1ccccc1Cl
154 nM	O=C(Nc1ccc(N2C(=O)CC3(CCCCC3)C2=O)c(Cl)c1)c1ccccn1

Source: PubChem BioAssay AID2197 (Vanderbilt High Throughput Screening Facility, 2009)
